One substance from patent US20130267547A1, “PRODRUGS UTILIZING A TRANSPORTER-DIRECTED UPTAKE MECHANISM” (VIRGINIA COMMONWEALTH UNIVERSITY, priority 2010, published 2013) can be followed below.

The test system of this data set is BeWo cells. In words: Uptake of 3H-lopinavir, 3H-succinyl-lopinavir and 3H-carnitine-succinyl-lopinavir by BeWo cells, with and without transport inhibitors. To be noted: 10 minutes at 37° C. As to the method: FIG. 10. […] BeWo cells (passage 38) were incubated with the compounds for 10 minutes at 37° C. or 4° C. in Dulbecco's phosphate buffered saline containing 0.05% bovine serum albumin. After incubation, the cells were washed with the cold buffer (lacking the compounds), and compounds were extracted from the cells into methanol followed by liquid scintillation analysis.
Specifically, bromosulfophthalein (BSP) is an inhibitor of several organic anion transporters (OATs; gene family SLC22A), as well as organic anion transporting polypeptides (OATPs; gene family SLCO). […] Finally, taurocholate is a classic substrate for bile salt transporters, including the sodium-dependent taurocholate transporter (NTCP; SLC10A1), the apical bile salt transporter (ASBT; SLC10A2), and certain OATPs.
The BeWo cell line is originally derived from a human choriocarcinoma. The BeWo cell line (Schwartz clone; passage 30) was a gift. BeWo cells in these studies is used between passages 30-70. BeWo cells are cultured in high glucose Dulbecco's modified Eagle's medium (DMEM) supplemented with 10% heat inactivated fetal bovine serum (FBS).

Entries after “also recorded” stand apart in the source; their conditions may differ.

Take Carnitine-succinyl-lopinavir [CS-LPV]: the “Uptake compared with LPV uptake, in words” value is listed as “significantly less than LPV uptake; also recorded: very low, worse than that of LPV”.
